According to patent publication US20090325944A1, “Methods and Compositions for Modulating Glycosylation” (priority 2006, published 2009):

Assays:
sOGT [1] = molecular target: T1, sOGT (Homo sapiens, UniProt O15294); assay: Radiometric secondary assay: transfer of UDP-14C-GlcNAc to peptide SEQ ID NO:2 by sOGT; assay type: biochemical; conditions: known peptide substrate held constant, UDP-GlcNAc 0.5-60 μM
T1 construct: ncOGT and sOGT are identical to known splice variants; His8 (C); made in house; host or cells: E. coli BL21(DE3)
T1 sequence (O15294 1-665 isoform O15294-4): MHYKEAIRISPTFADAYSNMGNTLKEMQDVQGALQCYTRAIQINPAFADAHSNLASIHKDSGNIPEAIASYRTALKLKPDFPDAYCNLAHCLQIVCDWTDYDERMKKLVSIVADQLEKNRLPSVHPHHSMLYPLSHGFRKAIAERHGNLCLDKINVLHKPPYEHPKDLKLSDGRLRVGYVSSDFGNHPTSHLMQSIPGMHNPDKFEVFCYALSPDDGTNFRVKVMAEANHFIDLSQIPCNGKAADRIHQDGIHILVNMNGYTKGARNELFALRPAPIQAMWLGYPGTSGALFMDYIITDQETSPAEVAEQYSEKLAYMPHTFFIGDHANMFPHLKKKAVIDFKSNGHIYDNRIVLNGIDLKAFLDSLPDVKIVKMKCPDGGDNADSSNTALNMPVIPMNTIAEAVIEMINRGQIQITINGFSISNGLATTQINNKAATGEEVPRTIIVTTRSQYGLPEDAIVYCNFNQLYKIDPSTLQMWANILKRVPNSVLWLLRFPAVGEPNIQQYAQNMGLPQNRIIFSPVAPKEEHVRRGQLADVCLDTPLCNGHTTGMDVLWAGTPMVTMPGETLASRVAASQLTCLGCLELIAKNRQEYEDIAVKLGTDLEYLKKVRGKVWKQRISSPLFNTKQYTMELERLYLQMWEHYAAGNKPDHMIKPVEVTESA
Method: The peptide assay was performed as described herein (see procedure for the Secondary assay below), and the Km of UDP-GlcNAc and Kcat were determined by varying the UDP-GlcNAc concentration from 0.5 μM to 60 μM while holding the peptide (SEQ ID NO:2) constant. Nup62 was expressed and purified as previously described by Hanover and co-workers (Lubas, W. A.; Smith, M.; Starr, C. M.; Hanover, J. A.; Biochemistry, 1995, 34, (5), 1686-94) and was stored in 2 M urea at −80° C. […] The nup62 reactions were run for 15-30 minutes, spotted on Whatman MM filter paper, washed with 3×10% TCA for 5 minutes, washed with acetone for 5 minutes, and then counted by liquid scintillation counting. […]
One microliter aliquots (5 mg/nL) of the hits were obtained from the ICCB, and these were normalized to 1.0 mM with DMSO. These compounds were screened at 25 μM in a reaction mixture containing 500 μM peptide (SEQ ID NO:2), 6.25 μM UDP-^14C-GlcNAc, ˜20-40 nM sOGT, and buffer (125 mM NaCl, 1 mM EDTA, 20 mM potassium phosphate, pH=7.4, and 500 μM tris(hydroxypropyl)phosphine. Reactions were spotted on Whatman P81 phosphocellulose discs, washed three times for five minutes in 1% phosphoric acid, and counted by liquid scintillation counting. […]

sOGT [2] = molecular target: T1, sOGT; assay: Fluorescence polarization displacement of probe 3 from sOGT (validation with UDP and UDP-GlcNAc); assay type: binding
Method: 20 μL of this solution is transferred to wells of a 384-well microplate. […] Fluorescence polarization was measured using a Perkin Elmer Envision® microplate reader. Bach series was performed in triplicate and the average of each data point was converted from mP to anisotropy then fitted to the following equation:
[L]0=(KD(Amax−A)/Kd(A−Amin)+1)([E]0−Kd(A−Amin)/(Amax−A)−[t]0(A−Amin)/(Amax−Amin)) eq 3
where A=measured anisotropy at a particular total concentration of ligand (L), sOGT (E) and probe 3 (t), Amin=minimum polarization (i.e., anisotropy of free probe), Amax=final anisotropy (i.e., anisotropy of probe 3 bound entirely to sOGT), KD=dissociation constant of the ligand, Kd=dissociation constant of the probe 3.

uridine diphosphate N-acetylglucosamine [UDP-GlcNAc]
Km (sOGT [1]): 6.7 ± 0.5 µM
Kd (sOGT [2]; 50 nM probe 3, 1.5 μM sOGT, ligand 50 μM to 98 nM, read-out: KD (dissociation constant) from displacement of probe 3 from sOGT): 1500 ± 400 nM
extent of displacement of probe 3 from sOGT (sOGT [2]; at high concentrations of ligand): completely displaced probe 3 from sOGT
